Measurements: US9044491B2, “Method for improving blood flow using stilbenoid derivatives” (The Board of Trustees of the University of Arkansas, priority 2010, dated 2015)

The chains behind the UniProt entries cited, without tags or fusion partners. Residues count along the entry.
UniProt Q9HAW8, 26-530 limits assumed: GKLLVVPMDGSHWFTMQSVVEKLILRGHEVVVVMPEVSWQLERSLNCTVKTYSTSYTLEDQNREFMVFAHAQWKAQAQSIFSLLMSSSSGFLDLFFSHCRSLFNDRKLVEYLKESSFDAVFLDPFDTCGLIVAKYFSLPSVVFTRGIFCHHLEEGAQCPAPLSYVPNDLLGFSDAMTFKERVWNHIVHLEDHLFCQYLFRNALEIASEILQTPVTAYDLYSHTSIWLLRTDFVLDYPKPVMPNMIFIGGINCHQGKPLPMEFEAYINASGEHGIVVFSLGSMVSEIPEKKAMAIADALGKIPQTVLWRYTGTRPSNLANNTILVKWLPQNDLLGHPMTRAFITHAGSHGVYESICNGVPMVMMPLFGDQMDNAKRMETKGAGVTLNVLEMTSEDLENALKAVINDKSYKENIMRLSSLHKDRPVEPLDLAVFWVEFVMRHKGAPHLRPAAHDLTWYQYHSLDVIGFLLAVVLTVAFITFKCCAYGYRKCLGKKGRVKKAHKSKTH
UniProt P22309, 26-533 limits assumed: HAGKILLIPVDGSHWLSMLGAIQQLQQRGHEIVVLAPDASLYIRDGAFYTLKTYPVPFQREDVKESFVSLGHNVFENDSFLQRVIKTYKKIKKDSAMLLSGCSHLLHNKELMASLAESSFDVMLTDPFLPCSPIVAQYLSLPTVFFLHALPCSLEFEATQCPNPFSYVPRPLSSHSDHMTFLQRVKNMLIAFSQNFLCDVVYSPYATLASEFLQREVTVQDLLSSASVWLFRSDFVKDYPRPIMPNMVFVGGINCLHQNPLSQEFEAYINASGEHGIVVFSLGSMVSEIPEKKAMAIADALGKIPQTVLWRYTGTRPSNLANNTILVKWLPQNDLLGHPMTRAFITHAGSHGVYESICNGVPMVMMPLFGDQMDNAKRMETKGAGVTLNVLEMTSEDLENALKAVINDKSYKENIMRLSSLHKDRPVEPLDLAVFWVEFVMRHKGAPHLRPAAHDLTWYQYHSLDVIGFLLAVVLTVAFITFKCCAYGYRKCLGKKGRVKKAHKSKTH

Assays:
human UGT1A10 = human UGT1A10 (Homo sapiens, UniProt Q9HAW8); test: Glucuronidation by recombinant human UGT1A10 (activity and kinetic constants); format: in vitro ADME; conditions: product 3-glucuronide (3G)
human UGT1A1 = human UGT1A1 (Homo sapiens, UniProt P22309); test: Glucuronidation by recombinant human UGT1A1 (activity and kinetic constants); format: in vitro ADME

CC(C)/C=C/c1c(O)cc(/C=C/c2ccc(O)c(O)c2)cc1O
--: Kinetics (human UGT1A10) | Km (human UGT1A10) | Kinetics (human UGT1A1; product 3-glucuronide (3G)) | Km (human UGT1A1; product 3-glucuronide (3G)) | Kinetics (human UGT1A1; product 4′-glucuronide (4′G)) | Km (human UGT1A1; product 4′-glucuronide (4′G))
